Consider 26 compounds from PubChem BioAssay AID1347056 (Sanford-Burnham Center for Chemical Genomics, 2019).

Only a part is listed here, and it is no random draw. Some results for these compounds are left out of this collection, so the calls shown say nothing about other tests. Activity calls are given as the source filed them.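 The calls were made as follows: active = compounds whose plate-normalised and pattern-corrected inhibition of the luciferase reporter signal at the single screening dose is 50% or more; inactive = the rest.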

The test in a line: TROY pathway blockers in reporter cells – Q293 LMP1-TROYcd cells, NF-kB luciferase, uHTS, primary screen (AID 1347056). The conditions noted are these: 4 h, at 10 µM, hits give high values.
For the compound `O=C(NCC1(N2CCCCC2)CCCCC1)c1cccc(Cl)c1`, the inhibition is inactive: -3.93%.
On to `COc1cccc(C(=O)NCC2(N3CCCCC3)CCCCC2)c1`, for which the inhibition was inactive: -2.22%.
Take `COc1ccc(Cl)cc1C(=O)NCC1(N(C)C)CCCCC1`: the inhibition was inactive: -22%.
For `COc1cc(C(=O)NCC2(N(C)C)CCCCC2)c([N+](=O)[O-])cc1OC`, the inhibition is inactive: -5.91%.
On to `CN(C)C1(CNC(=O)c2ccc(Br)cc2)CCCCC1`, for which the inhibition was inactive: 8.46%.
Regarding `CC(C)Oc1ccc(C(=O)NCC2(N(C)C)CCCCC2)cc1`, the inhibition is inactive: -29.4%.
For the compound `O=C(OCCN1CCCC1)C(O)(c1ccccc1)c1ccccc1`, the inhibition was inactive: 14.4%.
For `CN(C)c1cccc(C(=O)NCC2(N(C)C)CCCCC2)c1` the value was inactive: -0.9%.
For `C=C(C)C#CC(O)(C(=O)OC1CCN(C)CC1)c1ccccc1` (stereo unspecified) the value was inactive: -4.58%.
Next, `COc1ccc(Br)c(C(=O)NCC2(N3CCCCC3)CCCCC2)c1`: inactive: -3.54%; `O=C(OC1CN2CCC1CC2)C(CO)(c1ccccc1)c1ccccc1` (stereo unspecified): inactive: -9.23%; `Cc1ccc(C(=O)NCC2(N3CCCCC3)CCCCC2)cc1`: inactive: 8.79%.
Regarding `CCN(CC)CC(C)C(C)OC(=O)C(O)(c1ccccc1)c1ccccc1` (stereo unspecified), the inhibition was inactive: 6.91%.
With `COc1cc(SC)ccc1C(=O)NCC1(N(C)C)CCCCC1`, the inhibition was inactive: 0.42%.
For `CC(C)N1C(=O)CC2(CCN(CCOC(=O)C(O)(c3ccccc3)c3ccccc3)CC2)C1=O`, the inhibition was inactive: 19.4%.
For `CN1[C@@H]2CC[C@H]1CC(OC(=O)C(O)(c1ccccc1)c1ccccc1)C2` (stereo partly specified) the value was inactive: -1.63%; for `O=C(NCC1(N2CCCCC2)CCCCC1)c1cc([N+](=O)[O-])ccc1Cl`, inactive: 10.7%.
Next, `COc1ccc(C(=O)NCC2(N(C)C)CCCCC2)cc1`: inactive: -28.5%; `Cc1cc(C(=O)NCC2(N3CCCCC3)CCCCC2)ccc1[N+](=O)[O-]`: inactive: 7.4%; `CCN1CCCC(OC(=O)C2(O)c3ccccc3C=Cc3ccccc32)C1` (stereo unspecified): inactive: 6.15%.
With `O=C(NCC1(N2CCCCC2)CCCCC1)c1cccc(Br)c1`, the inhibition was inactive: -8.51%.
Regarding `C=CCN1CCN(CCOC(=O)C(O)(c2ccccc2)c2ccccc2)CC1`, the inhibition was inactive: -13.8%.
Next, `O=C(NCC1(N2CCCCC2)CCCCC1)c1cc(F)c(F)cc1Cl`: inactive: -8.13%; `Cc1ccccc1C(=O)NCC1(N2CCCCC2)CCCCC1`: inactive: 16.9%.
For `CN(C)C1CCCC1OC(=O)C(O)(c1ccccc1)c1ccccc1` (stereo unspecified), the inhibition was inactive: 7.33%.
For `CN(C)c1ccc(C(=O)NCC2(N(C)C)CCCCC2)cc1` the value was inactive: -37.7%.

In general, inhibition refers to the relative decrease from the control value, in per cent.
